Screens from PubChem BioAssay.
Yeast UUG start – yeast start codon fidelity modulation | S. cerevisiae UUG-firefly luciferase reporter, luminescence/redox ratio | activity score, % at 18.7 µM | 0.13% of 350,000 active | AID 602363;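 active means replicate mean at a twofold rise or more, about +100% in these data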;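 further: firefly luciferase made from a UUG start codon reports start codon fidelity; reporter light over untreated wells divided by growth signal over untreated wells; some hits fall short of that in this replicate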
Cneo AK release – causes C. neoformans cell lysis; lysis activity, % at 15 µM; 0.2% of 360,000 active; adenylate kinase release luminescence, 4 h; normalised: neutral wells 0, clomiphene wells 100;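 active means mean lysis activity across replicates of at least 80%, whatever share of replicates individually reach that level; inactive means mean lysis activity below 80%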
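Assay system: log-phase C. neoformans yeast / Quantity: yeast cell density of 5 × 10^6 cells/mL / Medium: fresh YPD growth medium / Compound: single dose / Timing: static 4 h at 37 °C with compound, 1 h detection / Measured by: adenylate kinase release luminescence / Read-out: lysis from increased AK signal / Benchmarks: Clomiphene as positive lysis control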
DENV2 CPE – inhibitors of DENV2 cytopathic effect; 1.7% of 350,000 active; AID 651640; CPE inhibition, % at 9.99 µM; DENV2-infected cells, cytopathic effect rescue, plate reader; in the data active means CPE inhibition above about 20%, passing the limit was not always enough; inconclusive means no clear call, values can overlap the other calls; tested in BHK-21 cells;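 further: 0% = median of neutral control wells and 100% = median of positive control wells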
E-selectin induc – induces E-selectin expression in human endothelial cells. P16581. HUVEC E-selectin immunofluorescence imaging; normalized: neutral wells 0, TNF-alpha wells 100. activation, % at 7.58 µM. 0.37% of 260,000 active. AID 686992;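 active means mean E-selectin-positive cell signal at least 10% of the positive control, reached in at least 60% of replicates, without over 20% cell loss; inconclusive means no rule given, readout overlaps actives, possibly toxicity-flagged; inactive means the rest, including those meeting only one limit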
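Material: HUVEC primary endothelial cells; Amount: 3,000 cells per well; Dosing: single concentration; Medium: EGM-2 growth medium on 0.1% gelatin-coated wells; Read-out basis: percent E-selectin-positive cells; Signal: immunofluorescence imaging; Control set: TNF-alpha, DMSO.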
* marks the source's active call; other numbers are inactive results; u = inconclusive; x = no result. The list is not random: actives were taken first. Their share in the collection is about 1.8%.

SMILES | Yeast UUG start | Cneo AK release | DENV2 CPE | E-selectin induc
Cc1ccc(S(=O)(=O)Nc2ccc3c(c2)CC(=O)N([C@H](C)CO)C[C@H](C)[C@@H](CN(C)S(C)(=O)=O)O3)cc1 | 22 | 43 | -3 | 0
O=S(=O)(N[C@@H]1CC[C@@H](CCn2cc(-c3cccc(F)c3)nn2)O[C@@H]1CO)c1ccc(Cl)cc1 | 6 | -3 | 4 | -1
C[C@@H]1CN([C@H](C)CO)C(=O)Cc2cc(NC(=O)C3CCCCC3)ccc2O[C@@H]1CN(C)S(=O)(=O)c1ccccc1 | 14 | 4 | 2 | 0
Cc1cccc(NC(=O)CCCN2C(=O)C(c3ccccc3)Oc3cccnc32)c1C (stereo not given) | x | x | u | 57*
CCN1[C@H](C(=O)NCCc2cn(C)cn2)[C@@H](CO)[C@@H]2Cn3c(ccc(-c4cccnc4)c3=O)[C@@H]21 | x | -3 | 6 | 0
C[C@@H]1CN([C@@H](C)CO)C(=O)Cc2cc(NC(=O)CCCCCC(=O)Nc3ccccc3N)ccc2O[C@H]1CN(C)CC1CC1 | x | x | 21* | 0
Cc1noc(C)c1S(=O)(=O)N(C)C[C@@H]1Oc2ccc(NC(=O)CCCCCC(=O)Nc3ccccc3N)cc2CC(=O)N([C@@H](C)CO)C[C@@H]1C | x | x | 29* | 0
C[C@@H]1CN([C@H](C)CO)C(=O)Cc2cc(NC(=O)CCCCCC(=O)Nc3ccccc3N)ccc2O[C@@H]1CN(C)CC1CC1 | -6 | -3 | 11 | 0
C[C@@H]1CN([C@H](C)CO)C(=O)Cc2cc(NC(=O)CCCCCC(=O)Nc3ccccc3N)ccc2O[C@@H]1CN(C)S(C)(=O)=O | 3 | 0 | 91* | 17
C[C@@H]1CN([C@H](C)CO)S(=O)(=O)c2ccc(-c3ccc(F)cc3)cc2O[C@H]1CN(C)C(=O)C1CCC1 | x | x | x | 1
O=C(CN1C(=O)C(=O)N(Cc2ccccc2)C1=O)Nc1cc(Cl)cc(Cl)c1 | x | x | x | 1
N#CCSc1ccccc1NC(=O)CN1C(=O)C(=O)N(Cc2ccccc2)C1=O | x | x | 41* | 0

3 entries out of the list above, sorted by their value in Yeast UUG start, low to high:
SMILES	Yeast UUG start
C[C@@H]1CN([C@H](C)CO)C(=O)Cc2cc(NC(=O)CCCCCC(=O)Nc3ccccc3N)ccc2O[C@@H]1CN(C)S(C)(=O)=O	3
O=S(=O)(N[C@@H]1CC[C@@H](CCn2cc(-c3cccc(F)c3)nn2)O[C@@H]1CO)c1ccc(Cl)cc1	6
Cc1ccc(S(=O)(=O)Nc2ccc3c(c2)CC(=O)N([C@H](C)CO)C[C@H](C)[C@@H](CN(C)S(C)(=O)=O)O3)cc1	22

3 neighbouring records already listed:
SMILES | Yeast UUG start | Cneo AK release | DENV2 CPE | E-selectin induc
C[C@@H]1CN([C@H](C)CO)C(=O)Cc2cc(NC(=O)CCCCCC(=O)Nc3ccccc3N)ccc2O[C@@H]1CN(C)CC1CC1 | -6 | -3 | 11 | 0
C[C@@H]1CN([C@H](C)CO)C(=O)Cc2cc(NC(=O)CCCCCC(=O)Nc3ccccc3N)ccc2O[C@@H]1CN(C)S(C)(=O)=O | 3 | 0 | 91* | 17
C[C@@H]1CN([C@H](C)CO)S(=O)(=O)c2ccc(-c3ccc(F)cc3)cc2O[C@H]1CN(C)C(=O)C1CCC1 | x | x | x | 1

Next entries follow:
SMILES | Yeast UUG start | Cneo AK release | DENV2 CPE | E-selectin induc
CCC(=O)N1C[C@H](C)[C@H](OC)CN(C)C(=O)c2cc(NC(=O)c3ccc(F)cc3)ccc2OC[C@H]1C | 0 | 3 | u | 2
C[C@H]1CN([C@@H](C)CO)C(=O)c2cc(NC(=O)CCC(F)(F)F)ccc2O[C@H]1CN(C)C(=O)Nc1ccc2c(c1)OCO2 | 11 | -1 | 7 | -4
C[C@@H]1CN([C@H](C)CO)C(=O)c2cc(NS(C)(=O)=O)ccc2O[C@H]1CN(C)C(=O)Nc1ccc2c(c1)OCO2 | -7 | 1 | -1 | 197*
C[C@@H]1CN([C@@H](C)CO)C(=O)c2cc(NC(=O)CCC(F)(F)F)ccc2O[C@@H]1CN(C)C(=O)Nc1ccc2c(c1)OCO2 | 31 | 46 | 31* | 10
C[C@@H]1CN([C@H](C)CO)C(=O)c2cc(NS(C)(=O)=O)ccc2O[C@H]1CN(C)C(=O)Nc1ccccc1 | -12 | 0 | 4 | 69*
C[C@H](CO)N1C[C@H](C)[C@H](CN(C)C(=O)Nc2ccccc2)Oc2ccc(NS(C)(=O)=O)cc2C1=O | -19 | 3 | -5 | 74*
Cc1noc(C)c1S(=O)(=O)Nc1ccc2c(c1)C(=O)N([C@H](C)CO)C[C@H](C)[C@@H](CN(C)S(=O)(=O)c1cccs1)O2 | x | x | 8 | 0
Cc1ccc(-c2cnc3c(c2)C(=O)N([C@@H](C)CO)C[C@@H](C)[C@H](CN(C)CC2CCCCC2)O3)cc1 | 13 | -2 | -1 | 0
CC(=O)N(C)C[C@@H]1Oc2ncc(-c3ccccc3C)cc2C(=O)N([C@H](C)CO)C[C@H]1C | -13 | 0 | u | 0
C[C@H](CO)N1C[C@H](C)[C@@H](CN(C)C(=O)Nc2ccc3c(c2)OCO3)Oc2ccc(NS(=O)(=O)c3cccs3)cc2C1=O | 26 | 100* | 14 | -9
C[C@@H]1CCCCO[C@H](CN(C)C(=O)Nc2cccc3ccccc23)[C@@H](C)CN([C@H](C)CO)C(=O)c2cc(NC(=O)Nc3ccc(F)cc3)ccc2O1 | -10 | 0 | -5 | 0
C[C@@H]1CCCCO[C@@H](CN(C)C(=O)Nc2cccc3ccccc23)[C@@H](C)CN([C@@H](C)CO)C(=O)c2cc(NC(=O)Nc3ccc(C(F)(F)F)cc3)ccc2O1 | x | x | 26* | 1
C[C@@H]1CCCCO[C@H](CN(C)S(=O)(=O)c2ccc(F)cc2)[C@@H](C)CN([C@H](C)CO)C(=O)c2cc(NC(=O)Nc3cccc4ccccc34)ccc2O1 | -9 | -2 | 26* | 0
C[C@H](CO)N1C[C@H](C)[C@H](CN(C)C(=O)Nc2cccc3ccccc23)OCCCC[C@H](C)Oc2ccc(NC(=O)Nc3ccc(F)cc3)cc2C1=O | 3 | -3 | 25* | 0
C[C@@H]1CN([C@H](C)CO)C(=O)c2cc(NC(=O)Nc3ccc(C(F)(F)F)cc3)ccc2O[C@@H](C)CCCCO[C@@H]1CN(C)C(=O)Nc1cccc2ccccc12 | -15 | -1 | -8 | 0
COc1ccc2c3c(n(C)c2c1)[C@H](CO)NCC31CCN(S(=O)(=O)c2cccc(F)c2)CC1 | x | x | 15 | 0
Cc1noc(C)c1S(=O)(=O)N(C)C[C@H]1OCCCC[C@@H](C)Oc2ccc(NC(=O)Nc3ccc(F)cc3)cc2C(=O)N([C@H](C)CO)C[C@@H]1C | -6 | 0 | -7 | 0
Cc1noc(C)c1S(=O)(=O)N(C)C[C@@H]1OCCCC[C@H](C)Oc2ccc(NC(=O)NC(C)C)cc2C(=O)N([C@H](C)CO)C[C@H]1C | 12 | 41 | 86* | x
Cc1noc(C)c1S(=O)(=O)N(C)C[C@@H]1OCCCC[C@@H](C)Oc2ccc(NC(=O)Nc3ccc(F)cc3)cc2C(=O)N([C@@H](C)CO)C[C@@H]1C | x | x | 46* | 0
Cc1noc(C)c1S(=O)(=O)N(C)C[C@@H]1OCCCC[C@H](C)Oc2ccc(NC(=O)NC(C)C)cc2C(=O)N([C@@H](C)CO)C[C@H]1C | 2 | -6 | -11 | x
COc1ccc(OC)c(NC(=O)c2ccc(Cl)cc2)c1 | x | x | -3 | x
COc1ccc(OC)c(NC(=O)c2csc(Cl)c2OC)c1 | -13 | -1 | -7 | 38*
O=C(C[C@H]1C[C@H]2c3cc(NS(=O)(=O)c4ccc(F)cc4)ccc3O[C@H]2[C@@H](CO)O1)NCCc1ccccc1 | -5 | 2 | 59* | -1
O=C(C[C@@H]1C[C@@H]2c3cc(NS(=O)(=O)c4ccc(F)cc4)ccc3O[C@@H]2[C@H](CO)O1)NCCc1ccccc1 | -7 | 2 | 58* | 0
O=C(C[C@@H]1C[C@@H]2c3cc(NS(=O)(=O)c4ccc(F)cc4)ccc3O[C@@H]2[C@@H](CO)O1)NCCc1ccccc1 | -11 | 1 | -2 | -1
CC=Cc1ccc2n(c1=O)C[C@H]1[C@H](CO)[C@@H](C(=O)NCc3ccncn3)N(C(=O)C3CCCC3)[C@@H]21 (mixture of isomers) | x | x | -2 | 0
C/C=C/c1ccc([C@@H]2[C@H](CO)N(CC3CC3)[C@H]2CNC(=O)c2ccccc2)cc1 | -12 | -2 | 14 | 0
